Source: ChEMBL document CHEMBL5505961, “RIPK1 inhibitors: A key to unlocking the potential of necroptosis in drug development” (Eur J Med Chem, 2024)

Sequences of proteins named here, by UniProt entry; tags and fusion partners are left off. A change or cut given only in a name is not applied to a line headed by its entry.
UniProt Q9Y572: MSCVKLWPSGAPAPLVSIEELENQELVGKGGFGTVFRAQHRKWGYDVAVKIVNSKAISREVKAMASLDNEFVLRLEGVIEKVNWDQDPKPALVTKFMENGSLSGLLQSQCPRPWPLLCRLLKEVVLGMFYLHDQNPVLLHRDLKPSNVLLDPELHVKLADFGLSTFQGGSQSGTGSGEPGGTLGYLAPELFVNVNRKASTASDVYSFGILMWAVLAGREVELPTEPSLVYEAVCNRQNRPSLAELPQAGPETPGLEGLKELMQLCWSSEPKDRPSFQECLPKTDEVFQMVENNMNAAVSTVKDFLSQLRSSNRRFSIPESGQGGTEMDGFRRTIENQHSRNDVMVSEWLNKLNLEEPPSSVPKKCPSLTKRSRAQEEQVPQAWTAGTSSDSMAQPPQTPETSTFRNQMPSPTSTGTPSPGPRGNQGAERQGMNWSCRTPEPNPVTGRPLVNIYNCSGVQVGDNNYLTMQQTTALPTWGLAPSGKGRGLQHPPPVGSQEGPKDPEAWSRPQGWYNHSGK

Legend:
[1] = biological target: T1, Receptor-interacting serine/threonine-protein kinase 1 (Homo sapiens, UniProt Q13546)
T1 sequence (Q13546 whole entry): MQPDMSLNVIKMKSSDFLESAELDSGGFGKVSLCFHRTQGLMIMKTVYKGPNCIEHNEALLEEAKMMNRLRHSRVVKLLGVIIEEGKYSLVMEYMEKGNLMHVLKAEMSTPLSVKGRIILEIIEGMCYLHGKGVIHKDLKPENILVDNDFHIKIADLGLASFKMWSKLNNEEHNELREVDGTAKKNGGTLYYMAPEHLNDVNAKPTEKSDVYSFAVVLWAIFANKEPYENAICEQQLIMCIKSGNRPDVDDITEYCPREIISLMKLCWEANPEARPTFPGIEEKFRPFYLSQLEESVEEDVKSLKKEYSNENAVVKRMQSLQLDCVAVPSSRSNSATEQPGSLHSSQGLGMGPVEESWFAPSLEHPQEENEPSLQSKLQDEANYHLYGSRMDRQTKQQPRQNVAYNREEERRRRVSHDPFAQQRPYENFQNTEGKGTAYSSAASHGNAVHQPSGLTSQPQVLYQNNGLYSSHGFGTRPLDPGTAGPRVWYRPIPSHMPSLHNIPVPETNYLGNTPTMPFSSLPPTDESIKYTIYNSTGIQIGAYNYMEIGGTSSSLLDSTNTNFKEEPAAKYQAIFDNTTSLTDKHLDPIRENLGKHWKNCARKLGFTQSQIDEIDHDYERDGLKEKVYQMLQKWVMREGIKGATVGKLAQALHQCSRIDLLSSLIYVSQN

[2] = biological target: Receptor-interacting serine/threonine-protein kinase 3 (Homo sapiens, UniProt Q9Y572)

Row | Kd [1] [nM] | IC5 [2] [µM] | SMILES
1 | 199 |  | Cc1ccc(C(=O)Nc2ccccc2)cc1-c1ccc2nc(NCCN3CCOCC3)ncc2c1
2 |  | < 0.25 | O=C(NCCc1ccccc1Cl)c1cn(-c2ccccc2)nn1
